# Only a part is listed here, and it is no random draw. Some structures show a salt or complex split into parts, the way the source records it. Active and inactive are the calls of the source. Cut-off read from the data, not from the text of the source: active = inhibition above about 50%; inactive = the rest.
# Protein sequences, listed by entry. Tags and fused reporters are not part of them.
# UniProt Q96LD8, whole entry: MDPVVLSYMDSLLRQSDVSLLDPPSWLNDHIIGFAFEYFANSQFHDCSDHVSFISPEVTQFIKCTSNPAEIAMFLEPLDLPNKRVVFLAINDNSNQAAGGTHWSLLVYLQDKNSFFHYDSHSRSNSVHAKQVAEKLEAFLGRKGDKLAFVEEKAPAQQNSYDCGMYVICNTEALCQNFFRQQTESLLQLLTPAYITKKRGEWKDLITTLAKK
# Target: Sentrin-specific protease 8 (Homo sapiens) (UniProt Q96LD8)
# Test: SENP8 protease inhibitors, primary screen, biochemical, luminescence (AID 2540)
# Details: purified SENP8, Z-RLRGG-aminoluciferin cleavage, at 10 µM, stronger effect = higher value
row,SMILES,inhibition
1,Cc1cc(C)cc(OP(C)(=O)Nc2ccccn2)c1 (configuration not stated),inactive: 2.41%
2,CP(=O)(Nc1cccc(Br)c1)Oc1ccccc1 (configuration not stated),inactive: 5.11%
3,Cc1ccc(C)c(NP(C)(=O)Oc2ccccc2)c1 (configuration not stated),inactive: 4.54%
4,COc1ccccc1OP(C)(=O)Nc1cccc(Br)c1 (configuration not stated),inactive: -4.55%
5,Cc1cc(C)cc(OP(C)(=O)Nc2ccc(C)cc2C)c1 (configuration not stated),inactive: -1.93%
6,CCOC(=O)c1ccc(NP(C)(=O)Oc2cc(C)cc(C)c2)cc1 (configuration not stated),inactive: 4.65%
7,CC1=NCCc2c1[nH]c1ccccc21.O=[N+]([O-])c1cc([N+](=O)[O-])c(O)c([N+](=O)[O-])c1,inactive: -0.846%
8,O=C(O)c1cccc(Nc2c([N+](=O)[O-])cc([N+](=O)[O-])cc2[N+](=O)[O-])c1,inactive: -2.8%
9,CN1CCCCC1COC(=O)C1(O)c2ccccc2CCc2ccccc21 (configuration not stated),inactive: 3.69%
10,COc1ccccc1OP(C)(=O)Nc1c(C)cccc1C (configuration not stated),inactive: 0.541%
11,CCCOc1ccc(NP(C)(=O)Oc2ccc(Cl)cc2)cc1 (configuration not stated),inactive: -1.67%
12,CP(=O)(Nc1ccc(SC(F)(F)F)cc1)Oc1ccccc1 (configuration not stated),inactive: 5.38%
13,CCOC(=O)C(CC)C1=NC(C)(C)Cc2ccccc21.O=[N+]([O-])c1cc([N+](=O)[O-])c(O)c([N+](=O)[O-])c1 (configuration not stated),inactive: 2.62%
14,CC1=C2N=C(C=C3N=C(C(C)=C4[N-][C@@](C)([C@@H]5N=C1[C@](C)(CCC(=O)NC[C@@H](C)OP(=O)([O-])O[C@H]1[C@@H](O)[C@@H](n6cnc7cc(C)c(C)cc76)O[C@@H]1CO)[C@H]5CC(N)=O)[C@@](C)(CC(N)=O)[C@@H]4CCC(N)=O)[C@@](C)(CC(N)=O)[C@@H]3CCC(N)=O)C(C)(C)[C@@H]2CCC(N)=O.[C-]#N.[Co+3],active: 53.9%
15,O=[N+]([O-])c1cc([N+](=O)[O-])c(Nc2nnnn2CCO)c([N+](=O)[O-])c1,inactive: 0.527%
16,O=[N+]([O-])c1cc([N+](=O)[O-])c(-c2cnn(-c3ccccc3)c2)c([N+](=O)[O-])c1,inactive: 7.65%
17,Cc1nc2ccc3ccccc3c2s1.O=[N+]([O-])c1cc([N+](=O)[O-])c(O)c([N+](=O)[O-])c1,inactive: -15%
18,O=[N+]([O-])c1cc([N+](=O)[O-])c(-n2nnc3ccccc32)c([N+](=O)[O-])c1,inactive: 1.8%
19,CCOP(C)(=S)SCC(=O)NC(C)C(=O)O (configuration not stated),inactive: -1.4%
20,O=[N+]([O-])c1cc([N+](=O)[O-])c(O)c([N+](=O)[O-])c1.c1ccc(Oc2ccncc2)cc1,inactive: -2.69%
21,CCOC(=O)c1ccc(NP(C)(=O)Oc2ccc(OC)cc2)cc1 (configuration not stated),inactive: -1.33%
22,CP(=O)(Nc1ccccn1)Oc1ccc(Cl)cc1 (configuration not stated),inactive: -4.3%

row,SMILES,inhibition
1,CP(=O)(Oc1ccccc1)OC(c1ccccc1)C(F)(F)F (configuration not stated),inactive: -3.52%
2,CP(=O)(Nc1ccc(SC(F)(F)F)cc1)Oc1ccc(Cl)cc1 (configuration not stated),inactive: -9.78%
3,Cc1cccc(C)c1OP(C)(=O)Nc1ccc(SC(F)(F)F)cc1 (configuration not stated),inactive: -8.1%
4,Cc1cc(C)cc(OP(C)(=O)Nc2ccc(SC(F)(F)F)cc2)c1 (configuration not stated),inactive: 7.43%
5,CP(=O)(NC(=O)Nc1ccccc1)Oc1ccccc1 (configuration not stated),inactive: -8.73%
6,CCc1ccc(OP(C)(=O)N2CCN(c3ccc([N+](=O)[O-])cc3)CC2)cc1 (configuration not stated),inactive: 1.98%
7,CP(=S)(Nn1cnnc1)Oc1ccccc1 (configuration not stated),inactive: -4.37%
8,COc1ccccc1OP(C)(=O)Nc1ccccc1 (configuration not stated),inactive: -6.16%
9,CP(=O)(Nc1ccccc1Br)Oc1ccccc1 (configuration not stated),inactive: 0.582%
10,CCOC(=O)c1ccc(NP(C)(=O)Oc2ccccc2)cc1 (configuration not stated),inactive: 0.22%
11,Cc1ccc(NP(C)(=O)Oc2ccccc2)c(C)c1 (configuration not stated),inactive: -1.38%
12,COc1ccccc1OP(C)(=O)Nc1ccc(C)cc1 (configuration not stated),inactive: 6.98%
13,COc1ccc(OP(C)(=O)Nc2cccc(F)c2)cc1 (configuration not stated),inactive: 6.08%
14,COc1ccccc1OP(C)(=O)Nc1cc(Cl)ccc1C (configuration not stated),inactive: -1.67%
15,Cc1cc(C)cc(OP(C)(N)=O)c1 (configuration not stated),inactive: -7.03%
16,O=[N+]([O-])c1cc([N+](=O)[O-])c(Nc2cccnc2)c([N+](=O)[O-])c1,inactive: -5.15%
17,Cc1cccc(C)c1OP(C)(N)=O (configuration not stated),inactive: 0.989%
18,CC(C)(C)c1ccc(OP(C)(=O)Nc2ccc(SC(F)(F)F)cc2)cc1 (configuration not stated),inactive: -5.84%
19,CCN(CC)CCCOC(=O)C(O)(c1ccccc1)c1ccccc1,inactive: 0.836%
20,Cc1c(NP(C)(=O)Oc2ccc(C(C)C)cc2)c(=O)n(-c2ccccc2)n1C (configuration not stated),inactive: 2.25%
21,O=[N+]([O-])c1cc([N+](=O)[O-])c(Nc2ccccn2)c([N+](=O)[O-])c1,inactive: 8.29%
22,CCc1ccc(OP(C)(=O)O)cc1,inactive: 3.34%

row,SMILES,inhibition
1,COc1ccccc1OP(C)(=O)Nc1ccc(C)cc1C (configuration not stated),inactive: 2.25%
2,CP(=O)(Nc1ccccn1)Oc1ccccc1 (configuration not stated),inactive: -5.42%
3,COc1ccccc1OP(C)(=O)Nc1ccc(Br)cc1 (configuration not stated),inactive: -8.47%
4,CN(C)CCOC(=O)C(O)(c1ccccc1)C1CCCC1 (configuration not stated),inactive: 0.309%
5,COc1ccc(OP(C)(=O)Nc2ccccn2)cc1 (configuration not stated),inactive: 3.45%
6,Cc1nc2ccc3ccccc3c2o1.O=[N+]([O-])c1cc([N+](=O)[O-])c(O)c([N+](=O)[O-])c1,inactive: 4.69%
7,CP(=O)(Nc1ccc(Cl)cc1Cl)Oc1ccccc1 (configuration not stated),inactive: -5.16%
8,CP(=O)(OCCOc1ccccc1)OCCOc1ccccc1,inactive: -0.105%
9,Cc1cc(C)cc(OP(C)(=O)Nc2cccc(C(F)(F)F)c2)c1 (configuration not stated),inactive: 4.25%
10,COc1ccc(OP(C)(=O)Nc2ccccc2Br)cc1 (configuration not stated),inactive: 0.443%
11,COc1ccccc1OP(C)(=O)Nc1ccc(C)c(C)c1 (configuration not stated),inactive: -2.19%
12,Nc1ccc2c(ccc3cccnc32)n1.O=[N+]([O-])c1cc([N+](=O)[O-])c(O)c([N+](=O)[O-])c1,inactive: -6.84%
13,CP(=O)(OC12CC3CC(CC(C3)C1)C2)OC12CC3CC(CC(C3)C1)C2,inactive: 2.45%
14,CCOC(=O)c1ccc(NP(C)(=O)Oc2ccc(Cl)cc2)cc1 (configuration not stated),inactive: 4.27%
15,CP(=O)(Nc1ccc(Cl)cc1)Oc1ccc(F)cc1 (configuration not stated),inactive: 1.62%
16,COc1ccccc1OP(C)(=O)Nc1ccccc1Br (configuration not stated),inactive: 2.07%
17,CC(C)(C)c1ccc(OP(C)(=O)O)cc1,inactive: 4.78%
18,CN(C)C(=O)c1c([N+](=O)[O-])cc([N+](=O)[O-])cc1[N+](=O)[O-],inactive: 4.32%
19,COc1ccc(OP(C)(=O)Nc2ccc(Br)cc2)cc1 (configuration not stated),inactive: -9.32%
20,CCN(CC)CC(O)COC(=O)C(O)(c1ccccc1)C1CCCCC1 (configuration not stated),inactive: 1.21%
21,CCc1ccc(OP(C)(=O)Nc2cccnc2)cc1 (configuration not stated),inactive: 2.48%
22,CP(=O)(Oc1ccccc1)N1CCOC1=O (configuration not stated),inactive: -1.8%

row,SMILES,inhibition
1,O=C(OCCCN1CCCC1)C(O)(c1ccccc1)C1CCCCC1 (configuration not stated),inactive: -0.026%
2,COc1ccccc1OP(C)(=O)Nc1c(C)n(C)n(-c2ccccc2)c1=O (configuration not stated),inactive: 0.726%
3,CP(=O)(Nc1ccc2c(c1)OCCO2)Oc1ccccc1 (configuration not stated),inactive: -5.55%
4,Cc1ccccc1NP(C)(=O)Nc1ccccc1C,inactive: -9.42%
5,CP(=O)(Nc1ccc(SC(F)(F)F)cc1)Oc1ccc(F)cc1 (configuration not stated),inactive: 2.71%
6,CCOP(C)(=S)SCC(=O)NC(C)(CC)C(=O)O (configuration not stated),inactive: -1.08%
7,O=[N+]([O-])c1cc([N+](=O)[O-])c(NCC2CCS(=O)(=O)C2)c([N+](=O)[O-])c1 (configuration not stated),inactive: -5.74%
8,COc1ccc(OP(C)(=O)Nc2cccc(Br)c2)cc1 (configuration not stated),inactive: 3.95%
9,COc1ccc(NP(C)(=O)Oc2ccccc2OC)cc1 (configuration not stated),inactive: 3.92%
10,CN(C)CCOC(=O)C(O)(c1ccccc1)C1CCCCC1 (configuration not stated),inactive: -1.84%
11,CCN(CC)CCCOC(=O)C(O)(c1ccccc1)C1CCCCC1 (configuration not stated),inactive: -0.385%
12,O=[N+]([O-])c1cc([N+](=O)[O-])c(OC2CCCCC2O)c([N+](=O)[O-])c1 (configuration not stated),inactive: -0.205%
13,CCCCCOc1ccc(NP(C)(=O)Oc2ccc(Cl)cc2Cl)cc1 (configuration not stated),inactive: 0.791%
14,CP(=O)(Nc1ccccc1)Oc1ccc(F)cc1 (configuration not stated),inactive: -8.3%
15,COc1ccc(OP(C)(=O)Nc2ccc(SC(F)(F)F)cc2)cc1 (configuration not stated),inactive: 5.34%
16,CCOC(=O)c1ccc(NP(C)(=O)Oc2ccc(F)cc2)cc1 (configuration not stated),inactive: -1.98%
17,O=C(OCCN1CCN(CCOCc2ccccc2)CC1)C(O)(c1ccccc1)c1ccccc1,inactive: -5.61%
18,O=C(OC1CN2CCC1CC2)c1ccc([N+](=O)[O-])cc1 (configuration not stated),inactive: -5.99%
19,COc1ccc2c(c1O)-c1c(O)c(OC)cc3c1[C@H](C2)[N+](C)(C)CC3.O=[N+]([O-])c1cc([N+](=O)[O-])c([O-])c([N+](=O)[O-])c1[O-],inactive: -2.02%
20,CC(C)c1ccc(OP(C)(=O)Nc2ccc(SC(F)(F)F)cc2)cc1 (configuration not stated),inactive: -12.8%
21,CP(=O)(Nc1ccccc1F)Oc1ccccc1 (configuration not stated),inactive: -5.12%

# Source: PubChem BioAssay AID2540 (Sanford-Burnham Center for Chemical Genomics, 2010)
